Reference: patent US20050074865

Experiments:
[1] = tested on: fluorometric derivative of substrate S2 (PT: NH2-GGVR)
[2] = tested on: fluorometric derivative of substrate S1 (HAE-PT)
[3] = tested on: thrombin tripeptide substrate tosyl-gly-pro-arg-amino methyl coumarin (Sigma)

Substance: human alpha thrombin, commercial standard (Sigma)
- specificity constant kcat/KM [1]: 1.03e+07 M⁻¹ s⁻¹
- specificity constant kcat/KM [2]: 8.9e+06 M⁻¹ s⁻¹
- KM for the tripeptide substrate, fluorometric assay of released AMC, substrate 0-50 µM, Line-Weaver-Burke plot [3]: commercially available human thrombin and the activated model adzyme had comparable KM values for this standard substrate, 4.2 µM and 3.9 µM, respectively
